Measured values published in patent publication US20080070924A1 (priority 2003, published 2008).

System: fentanyl cue

(+)-(B)-trans-4-[1-[3,5-bis(trifluoromethyl)benzoyl]-2-(phenylmethyl)-4-piperidinyl]-N-(2,6-dimethylphenyl)-1-piperazine acetamide (L)-malic acid (1:1)
effect of pretreatment on the stimulus generalization of fentanyl (fentanyl trained rats, pretreatment with 10 or 40 mg/kg): did not affect the stimulus generalization of fentanyl | generalization to / antagonism of the fentanyl cue (rats, 0.63 to 40 mg/kg s.c.): did not show any generalization to nor any antagonism of the fentanyl cue
